The source of these data is patent US6503881B2 (priority 1996, dated 2003).

Read-outs that look alike come from different tables or passages of the source.

Data set [1] is classed as in vitro ADME, rabbit. The note with it: inhibitor at 100 μM; 3 hrs at 22° C. As to the method:
A 1 mg/mL solution of MBI 11B7CN in isotonic saline is added to freshly prepared heat-inactivated rabbit serum, to give a final peptide concentration of 100 μg/mL and is incubated at 32° C.
A series of peptide stability studies are performed to investigate the action of protease inhibitors on peptide degradation. Peptide is added to rabbit serum or plasma, either with or without protease inhibitors, then incubated at 22° C. for 3 hrs. Protease inhibitors tested include amastatin, bestatin, COMPLETE protease inhibitor cocktail, leupeptin, pepstatin A and EDTA. […] For this experiments 10 mM stock solutions of amastatin and bestatin are prepared in dimethylsulfoxide. These solutions are diluted 1:100 in heat-inactivated rabbit serum and incubated at 22° C. for 15 mins prior to addition of peptide. MBI 11B7CN is added to the serum at a final concentration of 100 μg/mL and incubated for 3 hrs at 22° C. After the incubation period, the serum samples are analyzed on an analytical C8 column (Waters Nova Pak C8 3.9×170 mm) with detection at 280 nm. In FIG. 13, MBI 11B7CN elutes at 25 min.

The subject of data set [2] is mammalian red blood cells. The format is cell-based. Particulars: for % Lysis: 37° C., 1 hour, A540 vs 100% lysed standard.
The next data set deals with sheep RBC. The format is cell-based.
Data set [3] is classed as physicochemical. Particulars: for Conformation in buffer / Conformation in TFE: CD; for Conformation in TFE: phosphate buffer and 40% (v/v) trifluoroethanol.
Data set [4] is classed as in vivo. The note with it: intraperitoneal single dose, isotonic saline, Swiss CD1 mice, 5 days observation.
On the set-up of data set [5]: species or system outbred ICR mice. Particulars: mouse, in vivo, ip.
Details of data set [6]: species or system mice. The note with it: mouse, in vivo, ip, 40 mg/kg.
Details of data set [7]: species or system mice. Particulars: mouse, in vivo, iv.
Data set [8] is classed as in vivo. Particulars: Swiss CD-1 mice; for No. Surviving: cumulative.
Details of data set [9]: species or system outbred ICR mice. The note with it: mouse, in vivo, iv.
The format of data set [10] is in vivo, mice. Particulars: subcutaneous, 5 days.
The format of data set [11] is in vivo. Particulars: intravenous single dose, isotonic saline, Swiss CD1 mice, 5 days observation.
The format of data set [12] is in vivo, mice. The note with it: iv.
Data set [13] is classed as physicochemical. Particulars: 400 μg/mL.
The format of data set [14] is in vitro ADME, sheep.
The format of data set [15] is physicochemical. Particulars: calcium and magnesium supplemented Mueller Hinton broth; visual inspection.
The mark [16] stands for this setting: 10 mM sodium phosphate buffer, pH 7.2.
The mark [17] stands for this setting: phosphate buffer and 40% (v/v) TFE.

For Amastatin, the “effect on degradation of MBI 11B7CN” value in [1] was “prevent the degradation”.
For “G N N R P V Y I P Q P R P P H P R I [Apidaecin IA, reference compound]”, the “% Lysis” value in data set [2] is on record as 0.3%.
For Gramicidin-S [reference compound], the “% lysis at 5 μg/ml” value in the data set on sheep RBC (1% (v/v) sheep RBC, isotonic saline pH 6-7, 5 μg/ml peptide) came to 30%.
With I L K K W P W W P R R K [MBI 11G6ACN], in [3] (setting [16]), the Conformation in buffer entry was “Unordered”. For the same substance, the “Conformation in TFE” value in data set [3] was “Unordered”.
Consider I L K K W P W W P W R K [MBI 11B4ACN], for which the Conformation in buffer entry in data set [3] (setting [16]) is listed as “Unordered”. In addition, the “Conformation in TFE” value in data set [3] is given as “Unordered”.
On to “I L K K W P W W P W R R I M [MBI 11D13H]”, for which the “% Lysis” value in [2] turned out to be 1.7%.
Still for that read-out and setting: then “I L K K W P W W P W R R K M [MBI 11D11H]”, with 0.7%.
Consider I L K K W P W W P W R R K [MBI 11ACN], for which the Conformation in buffer entry in data set [3] (setting [16]) is reported as “Unordered”. Moreover, in data set [3], the “Conformation in TFE” value is reported as “Unordered”.
Take I L K K W P W W P W R R K [MBI 11CNY1]: the Conformation in buffer result in [3] (setting [16]) was “Unordered”. Besides, in data set [3], the “Conformation in TFE” value is recorded as “Unordered”.
Take I L K K W P W W P W R R K [MBI 11CN]: the LD90-100 in data set [4] is 40 mg/kg; in data set [8] (single iv dose in saline), 8 mg/kg; in data set [10], “greater than 128 mg/kg”. Further, the “dose up to which no toxicity was shown” value in data set [5] is 40 mg/kg. Besides, in data set [6], the “blood level after 60 minutes” value is on record as “non-detectable”. For the same substance, the “free circulating peptide in blood” value in data set [7] is recorded as “not detectable”. In addition, the “% Dead” value came to 0% in [8] (3 mg/kg single iv dose); 0% in data set [8] (5 mg/kg single iv dose); 100% in [8] (8 mg/kg single iv dose); 100% in data set [8] (10 mg/kg single iv dose); 100% in data set [8] (13 mg/kg single iv dose). Besides, the “Cumulative Dead” value in data set [8] (3 mg/kg single iv dose) is 0; in data set [8] (5 mg/kg single iv dose), 0; in [8] (8 mg/kg single iv dose), 6; in data set [8] (10 mg/kg single iv dose), 12; in data set [8] (13 mg/kg single iv dose), 18. Moreover, the “No. Surviving” value is on record as 12 in [8] (3 mg/kg single iv dose); 6 in data set [8] (5 mg/kg single iv dose); 0 in data set [8] (8 mg/kg single iv dose); 0 in data set [8] (10 mg/kg single iv dose); 0 in data set [8] (13 mg/kg single iv dose). The LD50 in [8] (iv single dose) and in [8] (single iv dose in saline) was 7 mg/kg each time. In addition, in data set [8] (iv single dose), the “highest dose giving 100% survival” value is 5 mg/kg. Moreover, the MTD in [8] (single iv dose in saline) is 5 mg/kg; in data set [11] it was less than 4 mg/kg. Also, the values for the toxicity in [9] (3 mg/kg), in data set [9] (6.1 mg/kg) and in data set [9] (12 mg/kg) were 100%, 10% and 100%, respectively. The “secondary structure (CD)” value is recorded as “unordered structures” in data set [3] (setting [16]); “unordered” in data set [3] (setting [17]); “β-turn structure” in data set [3] (phosphate buffer and liposomes). Moreover, the “toxicity (mortality) of multiple injections” value in [12] (two injections of 4.1 mg/kg with a 10 minute interval) is 60%. For the same substance, the “Result (mortality)” value in data set [12] (mouse, in vivo, 4.1 mg/kg) turned out to be 66%. Moreover, in data set [12] (mouse, in vivo, 4.1 mg/kg), the “Result (toxicity)” value amounted to 66% toxicity. Further, the “free peptide in formulation” value in [13] is reported as less than 10%. Also, in data set [14] (on addition to the blood), the “peptide immediately released from formulation-peptide complex” value was “up to 50%”. In [14] (sheep plasma, 100 μg/mL, 37° C.), the “apparent half-life of free peptide” value was 1.5 h. In data set [2], the erythrocyte lysis entry is recorded as “substantial lysis”. This substance also displayed a lysis in data set [2] of 3.2%.
Turning to I L K K W P W W P W R R K [MBI 11], the Conformation in buffer entry in [3] (setting [16]) is listed as “Unordered”. Moreover, the “Conformation in TFE” value in data set [3] was “β-turn”. Also, the “secondary structure (CD)” value in data set [3] (setting [17]) is “β-turn structure”. Besides, in [2], the erythrocyte lysis result is “substantial lysis” and the lysis is given as 2.3%.
Regarding I L K K W P W W P W R R [MBI 11G7ACN], in [3] (setting [16]), the Conformation in buffer entry is on record as “Unordered”. Moreover, the “Conformation in TFE” value in [3] was “Unordered”.
Take I L K K W P W W P W R R k [MBI 11E2CN]: the Conformation in buffer result in [3] (setting [16]) is recorded as “Unordered”. Further, the “Conformation in TFE” value in [3] was “Unordered”.
For I L K K W V W W P W R R K [MBI 11F3CN], in the data set on sheep RBC (sheep RBC 1% (v/v), 5, 50 or 500 μg/ml, compared with MBI 11CN and Gramicidin-S), the RBC lysis grouping entry is “significantly less lytic than the other two variants”. In addition, the LD90-100 in data set [4] is on record as 80 mg/kg. The Conformation in buffer entry in data set [3] (setting [16]) is reported as “ppII helix”. Also, the “Conformation in TFE” value in [3] was “Unordered”.
With I L K K W W W P W R R K [MBI 11G4CN], in [3] (setting [16]), the Conformation in buffer result is listed as “Unordered”. Further, the “Conformation in TFE” value in data set [3] is “β-turn”. Further, the “secondary structure (CD)” value in data set [3] (setting [17]) is “β-turn structure”.
I L P W K W P W W P W R R [MBI 10CN]: the “dose up to which no toxicity was shown” value in [5] is recorded as 29 mg/kg. For the same substance, the solubility in broth result in data set [15] was “less soluble than MBI 11CN”. This substance yielded a toxicity in data set [9] (11 mg/kg) of 40%. The substance further registered a toxicity in data set [9] (22 mg/kg) of 100%. For the same substance, in data set [3] (setting [16]), the Conformation in buffer entry was “Unordered”. The “Conformation in TFE” value in data set [3] was “Unordered”. For the same substance, in data set [2], the erythrocyte lysis entry was “substantial lysis” and the lysis is 3.9%.
I L R R W P W W P W R R R [MBI 11B9ACN]: the Conformation in buffer result in [3] (setting [16]) is reported as “Unordered”. For the same substance, the “Conformation in TFE” value in data set [3] was “Unordered”.
As for I L R W P W W P W R R K [MBI 11B7CN], in data set [4], the LD90-100 was greater than 80 mg/kg. Also, the “secondary structure (CD)” value is listed as “unordered structures” in data set [3] (setting [16]); “unordered” in data set [3] (setting [17]); “β-turn structure” in [3] (phosphate buffer and liposomes).
Consider I L R W V W W V W R R K [MBI 11F4CN], for which the solubility in broth result in [15] is “most insoluble”. Moreover, in data set [3] (setting [16]), the “secondary structure (CD)” value is reported as “additional minima at 220 nm” and the Conformation in buffer entry is “Unordered”. In addition, in [3], the “Conformation in TFE” value was “slight α-helix”. For the same substance, the “secondary structure (CD)” value in data set [3] (setting [17]) is “increases 60 -helicity”. In addition, the “erythrocyte lysis / toxicity” value in data set [2] was “most insoluble and hemolytic”.
As for L K K W P W W P W R R K [MBI 11D1CN], in [3] (setting [16]), the Conformation in buffer result was “Unordered”. Besides, in data set [3], the “Conformation in TFE” value is given as “Unordered”.
As for W R I W K P K W R L P K W [MBI 11D18CN], the “% Lysis” value in data set [2] was 0.8%.
Turning to bestatin, in data set [1], the “effect on degradation of MBI 11B7CN” value was “prevent the degradation”.
Turning to i L K K W P W W P W R R K [MBI 11E1CN], the Conformation in buffer result in data set [3] (setting [16]) is “Unordered”. Also, the “Conformation in TFE” value in [3] is given as “Unordered”.
As to i L K K W P W W P W R R k [MBI 11E3CN], in data set [4], the LD90-100 is on record as 40 mg/kg and the MTD was less than 20 mg/kg. Moreover, the Conformation in buffer entry in [3] (setting [16]) is “ppII helix”. For the same substance, the “Conformation in TFE” value in data set [3] was “Unordered”.

Usually LD50 stands for the dose expected to kill half of the subjects tested.
